# According to ChEMBL document CHEMBL1138589, “Development of novel aminoglycoside (NB54) with reduced toxicity and enhanced suppression of disease-causing premature stop mutations” (J Med Chem, 2009):
# Tested on: Ribosomal RNA A-site
# Test: Binding affinity to human cytoplasmic ribosomal RNA A-site
# Type: nucleic-acid assay
# Procedure, shortened: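 UV melting of RNA A-site model oligonucleotide, 2 µM in strand, drug 0 to 10 µM, in 10 mM EPPS (pH 7.0), 10 mM NaCl. RNA preheated 85 °C 5 min and slowly cooled. Absorbance read at 274 nm, 1 cm path, 0.5 °C steps with 1.5 min equilibration per step; ΔTm derived.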
compound,measurement,value
NC[C@@H]1O[C@H](O[C@H]2[C@@H](O)[C@H](O[C@@H]3[C@@H](O)[C@H](N)C[C@H](N)[C@H]3O[C@H]3O[C@H](CO)[C@@H](O)[C@H](O)[C@H]3N)O[C@@H]2CO)[C@H](N)[C@@H](O)[C@@H]1O [PAROMOMYCIN],Ka,3.9 ×10⁻⁵ /M
